Data: patent publication US7772251B2, “N-sulphonylated amino acid derivatives, method for the production and use thereof” (The Medicines Company (Leipzig) GmbH, priority 2003, dated 2010)

Target: T1, matriptase (Homo sapiens, UniProt Q9Y5Y6)
T1 construct: Met-Lys-(His)6 (N, cleaved yes); made in house; host or cells: Escherichia coli BL21 (DE3), vector pET24
T1 sequence (Q9Y5Y6 615-854 limits assumed): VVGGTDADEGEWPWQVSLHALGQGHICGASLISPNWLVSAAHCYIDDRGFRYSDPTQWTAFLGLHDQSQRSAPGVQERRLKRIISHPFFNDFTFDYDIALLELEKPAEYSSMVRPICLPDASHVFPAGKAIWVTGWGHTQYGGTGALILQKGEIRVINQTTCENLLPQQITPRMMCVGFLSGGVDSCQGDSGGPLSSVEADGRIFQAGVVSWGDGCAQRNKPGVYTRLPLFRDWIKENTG
Test: Determination of Ki values for the inhibition of matriptase (chromogenic substrate CH3SO2-D-HHT-Gly-Arg-pNA)
Assay type: biochemical
Settings: 25° C, pH 8.0, Dixon method, average of three determinations

- Ki: 14 nM
SMILES: CC(C)c1cc(C(C)C)c(S(=O)(=O)NC(Cc2cccc(C(=N)N)c2)C(=O)N2CCN(C(=O)C3CCN(C(=N)N)CC3)CC2)c(C(C)C)c1 (stereo not shown) [Compound 64]
